{"sequences": {"note": "The chains behind the UniProt entries cited, without tags or fusion partners. Residues count along the entry.", "UniProt O42275, 24-633": "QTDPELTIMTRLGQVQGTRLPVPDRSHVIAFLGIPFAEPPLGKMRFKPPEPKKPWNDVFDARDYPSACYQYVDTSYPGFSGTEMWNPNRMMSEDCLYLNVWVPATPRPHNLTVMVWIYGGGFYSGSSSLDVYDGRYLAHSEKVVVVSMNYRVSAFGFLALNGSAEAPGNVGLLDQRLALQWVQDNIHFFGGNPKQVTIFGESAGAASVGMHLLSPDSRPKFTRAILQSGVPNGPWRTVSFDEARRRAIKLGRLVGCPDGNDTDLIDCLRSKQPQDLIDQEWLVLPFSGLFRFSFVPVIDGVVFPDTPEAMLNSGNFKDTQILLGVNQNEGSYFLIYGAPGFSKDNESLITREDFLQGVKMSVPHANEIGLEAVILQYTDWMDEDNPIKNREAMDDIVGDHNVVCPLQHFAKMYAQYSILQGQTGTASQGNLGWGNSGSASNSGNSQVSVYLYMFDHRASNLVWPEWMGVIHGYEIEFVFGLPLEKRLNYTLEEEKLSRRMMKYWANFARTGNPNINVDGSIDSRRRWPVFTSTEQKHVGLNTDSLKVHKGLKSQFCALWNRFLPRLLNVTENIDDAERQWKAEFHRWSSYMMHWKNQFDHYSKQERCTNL", "UniProt P81908, whole entry": "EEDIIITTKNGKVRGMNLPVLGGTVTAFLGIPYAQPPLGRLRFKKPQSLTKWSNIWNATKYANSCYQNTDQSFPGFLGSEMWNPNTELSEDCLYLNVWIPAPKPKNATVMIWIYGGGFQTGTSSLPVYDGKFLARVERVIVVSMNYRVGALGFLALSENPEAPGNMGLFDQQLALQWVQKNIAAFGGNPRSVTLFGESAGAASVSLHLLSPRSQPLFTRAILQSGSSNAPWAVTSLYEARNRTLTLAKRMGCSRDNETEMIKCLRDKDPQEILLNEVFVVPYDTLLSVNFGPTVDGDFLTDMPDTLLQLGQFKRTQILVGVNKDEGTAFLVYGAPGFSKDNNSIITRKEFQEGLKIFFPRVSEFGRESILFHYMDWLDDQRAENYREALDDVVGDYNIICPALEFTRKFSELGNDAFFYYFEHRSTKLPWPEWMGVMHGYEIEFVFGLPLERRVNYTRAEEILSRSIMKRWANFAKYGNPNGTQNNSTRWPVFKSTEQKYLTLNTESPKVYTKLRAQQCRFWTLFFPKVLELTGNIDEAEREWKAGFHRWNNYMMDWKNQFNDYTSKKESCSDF"}, "source": "paper PMC8232895", "about": "(Drug Design, Development and Therapy, 2021)", "key": {"[1]": {"biological_target": "acetylcholinesterase (AChE) (Electrophorus electricus, UniProt O42275)", "conditions": "read-out: AChE IC50"}, "[2]": {"biological_target": "butyrylcholinesterase (BChE) (Equus caballus, UniProt P81908)"}}}
{"substance": "({3-[(4-Methoxy-2-Nitrophenyl) Carbamoyl] Propanoyl} Zincio 3-[(2-Methoxy-5-Nitrophenyl) Carbamoyl] Propanoate Pyridine [AAZ8]", "values": [{"measurement": "IC50", "setting": "[1]", "result": 25, "unit": "µM"}, {"measurement": "BChE IC50", "setting": "[2]; from dose-response curve", "result": 18, "unit": "µg/mL"}, {"measurement": "IC50", "setting": "[2]; read-out: BChE IC50", "result": 26.5, "unit": "µM"}]}
